# Earlier results, collected in PMC2673089 (Journal of pharmaceutical sciences, 2008).
# Test system: MDCK-MDR1 monolayers
# Conditions: MDCK-MDR1 monolayer characterization; cited from earlier work
structure (smiles),measurement,value
CC(=O)O[C@H]1C(=O)[C@@]2(C)[C@H]([C@H](OC(=O)c3ccccc3)[C@]3(O)C[C@H](OC(=O)[C@H](O)[C@@H](NC(=O)c4ccccc4)c4ccccc4)C(C)=C1C3(C)C)[C@]1(OC(C)=O)CO[C@@H]1C[C@@H]2O [paclitaxel],Efflux ratio of P-gp substrate marker,101
